Values quoted from earlier work, collected in patent US20210235703A1, “DISINFECTANT FOR DRINKABLE WATER, FOOD CONTACT, INDUSTRY, SPAS, SWIMMING POOLS AND AIR STERILIZATION” (INT'L CAPITAL INVESTMENT LLC, priority 2015, published 2021).

In the case of chlorous acid, the “pKa for the chlorite ion/chlorous acid equilibrium” value is listed as 1.8.
